The test concerns the target T1, Peroxisome proliferator-activated receptor alpha (Homo sapiens) (UniProt Q07869).
T1 sequence (whole entry): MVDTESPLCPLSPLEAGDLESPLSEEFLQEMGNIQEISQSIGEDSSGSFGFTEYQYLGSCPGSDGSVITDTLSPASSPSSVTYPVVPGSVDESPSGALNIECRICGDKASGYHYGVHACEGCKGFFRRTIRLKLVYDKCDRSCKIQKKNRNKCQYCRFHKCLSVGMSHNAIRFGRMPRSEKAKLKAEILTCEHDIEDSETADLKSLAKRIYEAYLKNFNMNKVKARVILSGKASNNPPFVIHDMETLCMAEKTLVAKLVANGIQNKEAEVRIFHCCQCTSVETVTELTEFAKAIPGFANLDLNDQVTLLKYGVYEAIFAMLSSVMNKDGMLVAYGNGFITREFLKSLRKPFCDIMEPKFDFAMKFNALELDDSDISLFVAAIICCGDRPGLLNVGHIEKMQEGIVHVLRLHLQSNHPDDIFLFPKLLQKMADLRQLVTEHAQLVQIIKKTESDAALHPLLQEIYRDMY
Briefly: Agonist activity at GAL4-DNA binding domain fused human PPARalpha ligand binding domain expressed in human HepG2 cells assessed as receptor transactivation incubated for 20 hrs by luciferase reporter gene assay relative to Wy-14,643. Type of test: cell-based. Background: A reporter such as luciferase makes a cellular process visible.

Calls of active or inactive are those of the source. The rule behind the calls is not given here.

On to `CCCCCCCO/N=C/c1ccc(OC(Cc2ccccc2)C(=O)O)cc1` (racemic), for which the Emax result is “inactive”.
